## Ab-95 light chain CDR variants: yeast mating affinities

Source: Engelhart et al. 2022 (doi:10.1038/s41597-022-01779-4), MIT Lincoln Laboratory and A-Alpha Bio; data file from the FLAb repository.

Target: peptide PDVDLGDISGINAS, taken from heptad repeat 2 (HR2) of SARS-CoV-2 spike.

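Library AAYL52 holds single substitutions and randomly drawn double and triple substitutions in the CDRs. Affinity was read by AlphaSeq, a pooled yeast mating assay with surface-displayed partners. Pairs that bind mate more often; barcode pairs of the diploids are counted by sequencing. Each replicate has its own calibration line, from reference interactions of the BCL2 family. Mating was done three times.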

The variants keep the heavy chain, the linker and the frameworks of Ab-95 (scFv order VH, the linker GGGGSGGGGSGGGGS, VL).
VH: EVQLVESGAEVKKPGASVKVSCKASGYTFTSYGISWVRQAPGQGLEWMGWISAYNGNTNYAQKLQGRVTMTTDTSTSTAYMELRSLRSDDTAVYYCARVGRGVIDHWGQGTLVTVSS
VL: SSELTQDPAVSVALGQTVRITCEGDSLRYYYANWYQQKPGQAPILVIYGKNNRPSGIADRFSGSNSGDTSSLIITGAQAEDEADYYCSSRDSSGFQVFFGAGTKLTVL

Variants are written as CDR1, CDR2 and CDR3 of the light chain (limits as in the source). Parent: EGDSLRYYYAN, GKNNRPS, SSRDSSGFQVF. All variants listed here change G24 of the VL, counted from its first residue. Values are apparent Kd, the geometric mean of the replicates that gave a signal; lower means stronger binding. An entry "not detected" has no value in the source: the pair was not observed among the diploids in any replicate. This suggests poor binding but is not conclusive. Order: sorted from the lowest average up, undetected variants last. Background: pairings of library AAYL52 with three empty control strains gave a value in 28% of cases (median 8.2 µM, 5th percentile 800 nM). Values in that range, when seen in few replicates, are hard to tell from nonspecific mating. Also given: how often the same scFv was detected with the empty control strains. In this assay the parent's reference entry averaged 200 nM; its copy inside this library read 180 nM.

CDR-L1	CDR-L2	CDR-L3	apparent Kd	replicates with signal	control signals
EDPSLRYSYAN	GKNNRPS	SSRDSSGFQVF	95 nM	3 of 3	3 of 9
EHDSLRYYYAN	GKNNRPS	NCRDSSGFQVF	230 nM	3 of 3	4 of 9
EQDELRYYYAN	GKNNRPS	SSRSSSGFQVF	310 nM	3 of 3	3 of 9
ERDSLRYYYAN	GKNNRPD	SSRDSSGTQVF	340 nM	3 of 3	3 of 9
EWDSLHYYYAN	GKNNRPS	SSRDSSGFQVF	530 nM	2 of 3	3 of 9
ETDSLREFYAN	GKNNRPS	SSRDSSGFQVF	600 nM	3 of 3	5 of 9
EWDSLRYPYAN	GKNNRPS	SSRDSSGFQVF	710 nM	3 of 3	1 of 9
EIDTLRYYYAN	GKNNRPA	SSRDSSGFQVF	880 nM	1 of 3	0 of 9
EVDSLRYYYAN	GKNNRPS	SSRDSSGFQVF	970 nM	3 of 3	1 of 9
EIDSLGYYYAN	GKNNRPE	SSRDSSGFQVF	1.2 µM	3 of 3	5 of 9
EADSLRYYYMN	GKNNRPS	SSRDSSGFQVF	1.3 µM	3 of 3	1 of 9
ECDSRRYYYAN	GKNNRPS	STRDSSGFQVF	1.3 µM	3 of 3	4 of 9
ESDSLRYCYAN	GKNNRPS	SSIDSSGFQVF	1.4 µM	3 of 3	2 of 9
VVDSLRYYYAN	GKNNRPS	ASRDSSGFQVF	1.5 µM	3 of 3	5 of 9
EADSLRYYYAN	GKNNRPS	SSRDSSGFQVQ	1.5 µM	2 of 3	2 of 9
EDDSLRYLYAN	GKNDRPS	SSRDSSGFQVF	1.7 µM	3 of 3	3 of 9
EFLSLRYYYAN	GKNNRPS	FSRDSSGFQVF	1.7 µM	2 of 3	1 of 9
ESDSLRYYMAN	GKNNRPS	SSPDSSGFQVF	2.5 µM	3 of 3	3 of 9
EADSLRYYYDN	GKNNRFS	SSRDSSGFQVF	2.9 µM	1 of 3	4 of 9
EVDSLRYYIAN	GKNNRPS	SSTDSSGFQVF	4.0 µM	3 of 3	2 of 9
EWDSLRYVYAN	GKNNRPS	KSRDSSGFQVF	4.3 µM	1 of 3	1 of 9
GDDSLRYYYAN	GKNNRPS	SSRDSSNFQVF	4.5 µM	2 of 3	5 of 9
EDDSLRYYYAN	GKMNRPS	SSRDSSGFNVF	5.9 µM	2 of 3	2 of 9
LMDSLRYYYAN	GKNNRPS	SSADSSGFQVF	6.5 µM	1 of 3	3 of 9
TVDSLFYYYAN	GKNNRPS	SSRDSSGFQVF	8.6 µM	2 of 3	0 of 9
ELDRLRYYYAN	GKNNRPS	SSRDSSGFQVM	10 µM	3 of 3	4 of 9
EHDSLCYYYAN	GKNNMPS	SSRDSSGFQVF	12 µM	1 of 3	3 of 9
EPDSLRCYYAY	GKNNRPS	SSRDSSGFQVF	13 µM	2 of 3	5 of 9
EILSLRYKYAN	GKNNRPS	SSRDSSGFQVF	13 µM	3 of 3	1 of 9
EKDSLRYYYAN	GKNNRPS	SGRDSDGFQVF	16 µM	1 of 3	1 of 9
EMDSLRYYYAN	GKNNRPI	SSRQSSGFQVF	18 µM	3 of 3	4 of 9
ELDSIRYYYAE	GKNNRPS	SSRDSSGFQVF	19 µM	2 of 3	6 of 9
ESDSLRYYYAN	GKNNRPS	SEGDSSGFQVF	19 µM	3 of 3	4 of 9
EYDSLRYYYAN	GKNNRPS	ASRDSSNFQVF	22 µM	1 of 3	4 of 9
ERDSLRYYYAN	GCNNKPS	SSRDSSGFQVF	23 µM	1 of 3	5 of 9
EFNSLRYYYAN	GKNNRIS	SSRDSSGFQVF	23 µM	2 of 3	1 of 9
LVDSLRYYYAN	GKCNRPS	SSRDSSGFQVF	31 µM	2 of 3	6 of 9
ECDSLRYYYAN	GKNNRPS	SSRDDSGFQWF	32 µM	1 of 3	0 of 9
EEDSLPYYYAN	GKNNRPS	SSRDSSGFQHF	37 µM	2 of 3	1 of 9
EWDSLQYYYAN	GKNNRPS	SSRDSSFFQVF	39 µM	2 of 3	5 of 9
EFDSLRYYYAN	WKNNRPS	SSRDSSYFQVF	65 µM	2 of 3	5 of 9
EFDSLRYYYAK	GKNNRPS	SSRDSSGFQVW	73 µM	1 of 3	5 of 9
CQDSWRYYYAN	GKNNRPS	SSRDSSGFQVF	110 µM	1 of 3	0 of 9
EWDSLRYYYAN	GKNCRPS	SSRDGSGFQVF	130 µM	1 of 3	1 of 9
ENYSLRGYYAN	GKNNRPS	SSRDSSGFQVF	460 µM	1 of 3	1 of 9
EWDSLRYYYAT	GKNPRPS	SSRDSSGFQVF	not detected	0 of 3	2 of 9
EYDSLRYYYAN	GKNNRPS	SSRDASLFQVF	not detected	0 of 3	2 of 9
EADKLRYYYAN	GKNNRPS	SSRDSLGFQVF	not detected	0 of 3	2 of 9
EEDSLRYYYAN	GKNDRPR	SSRDSSGFQVF	not detected	0 of 3	1 of 9
EKDSLRYYLAN	GKNSRPS	SSRDSSGFQVF	not detected	0 of 3	2 of 9
EMDSLRYYYGN	GKNNWPS	SSRDSSGFQVF	not detected	0 of 3	1 of 9
ELDSLRYYYAN	RKNNRTS	SSRDSSGFQVF	not detected	0 of 3	5 of 9
ELDSLRYYYAN	GKNNRPS	LSRDHSGFQVF	not detected	0 of 3	2 of 9